Biological target: T1, 5-LO (Rattus norvegicus, UniProt P12527)
T1 construct: the supernatant was saved as the source of enzymes; endogenous in cells; host or cells: RBL-1 (rat basophilic leukemia) cells
T1 sequence (P12527 1-673): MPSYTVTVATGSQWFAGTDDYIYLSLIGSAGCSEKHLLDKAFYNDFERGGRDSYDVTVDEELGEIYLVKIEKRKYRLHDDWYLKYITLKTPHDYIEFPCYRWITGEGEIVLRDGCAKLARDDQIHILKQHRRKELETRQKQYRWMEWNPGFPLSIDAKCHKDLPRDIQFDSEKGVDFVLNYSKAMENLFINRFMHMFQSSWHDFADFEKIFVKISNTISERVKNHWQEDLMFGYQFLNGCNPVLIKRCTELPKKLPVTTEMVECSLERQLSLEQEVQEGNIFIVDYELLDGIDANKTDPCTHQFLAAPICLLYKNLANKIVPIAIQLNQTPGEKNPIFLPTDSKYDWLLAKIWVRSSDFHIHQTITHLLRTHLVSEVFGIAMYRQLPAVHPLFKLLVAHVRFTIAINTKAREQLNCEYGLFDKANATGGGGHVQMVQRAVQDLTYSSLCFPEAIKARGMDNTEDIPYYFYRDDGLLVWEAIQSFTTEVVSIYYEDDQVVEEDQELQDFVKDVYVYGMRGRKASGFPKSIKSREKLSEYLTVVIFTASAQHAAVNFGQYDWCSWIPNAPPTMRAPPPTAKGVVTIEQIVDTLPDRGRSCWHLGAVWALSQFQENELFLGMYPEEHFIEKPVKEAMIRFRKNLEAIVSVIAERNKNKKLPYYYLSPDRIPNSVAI
Experiment: Procedure III: 5-LO (5-HETE) in intact RBL-1 cells
Type: cell-based
Conditions: calcium ionophore A 23187, read-out: Proc. III 5-LO IC50
Method: The IC50 was determined using a curve fit in Cricket Graph (Computer Associated), which provided the equation of the regressed line used in the calculation.
In Procedure III, the ability to inhibit 5-LO and CO in intact RBL-1 cells was also evaluated. […] Cells were collected by centrifugation, washed once in HBSS, and resuspended at a concentration of 1×10^5 cells/mL. Cells were incubated in the presence of vehicle or drug then centrifuged at 800×g for 10 minutes at 4° C. The supernatant was removed by aspiration and the cells were resuspended in 0.5 mL of HBSS. […] The conversion of AA to 5-LO products was initiated by the addition of 10 μL (50 μCi) of 1-^14 C-AA. Products were isolated by acidification and extraction, followed by thin layer chromatography analysis as described above. Radioactive areas corresponding to authentic 5-LO (5-HETE) and CO (PgD2) products were quantitated by the Bioscan 2000 Imaging System and the IC50 was calculated as above.

Compound `COc1ccc(-n2nc(C#CC(C)N(O)C(=O)c3ccco3)cc2-c2ccc(C)cc2)cc1` (stereo not shown) [Cpd 25, N-(furan-2-carbonyl)-N-(1-(1-(4-methoxyphenyl)-5-(4-methylphenyl)pyrazol-3-yl)-1-butyn-3-yl)hydroxylamine] has an IC50 of 2900 nM.

Source: patent publication US5925769A, “Acetylenic 1,5-diarylpyrazoles as antiinflammatory agents” (Ortho Pharmaceutical, Corp., priority 1998, dated 1999)
